Data reported in PMC9378703, “Structures of UBA6 explain its dual specificity for ubiquitin and FAT10” (Nature Communications, 2022).

The chains behind the UniProt entries cited, without tags or fusion partners. Residues count along the entry.
UniProt A0AVT1, 35-1052 F316A: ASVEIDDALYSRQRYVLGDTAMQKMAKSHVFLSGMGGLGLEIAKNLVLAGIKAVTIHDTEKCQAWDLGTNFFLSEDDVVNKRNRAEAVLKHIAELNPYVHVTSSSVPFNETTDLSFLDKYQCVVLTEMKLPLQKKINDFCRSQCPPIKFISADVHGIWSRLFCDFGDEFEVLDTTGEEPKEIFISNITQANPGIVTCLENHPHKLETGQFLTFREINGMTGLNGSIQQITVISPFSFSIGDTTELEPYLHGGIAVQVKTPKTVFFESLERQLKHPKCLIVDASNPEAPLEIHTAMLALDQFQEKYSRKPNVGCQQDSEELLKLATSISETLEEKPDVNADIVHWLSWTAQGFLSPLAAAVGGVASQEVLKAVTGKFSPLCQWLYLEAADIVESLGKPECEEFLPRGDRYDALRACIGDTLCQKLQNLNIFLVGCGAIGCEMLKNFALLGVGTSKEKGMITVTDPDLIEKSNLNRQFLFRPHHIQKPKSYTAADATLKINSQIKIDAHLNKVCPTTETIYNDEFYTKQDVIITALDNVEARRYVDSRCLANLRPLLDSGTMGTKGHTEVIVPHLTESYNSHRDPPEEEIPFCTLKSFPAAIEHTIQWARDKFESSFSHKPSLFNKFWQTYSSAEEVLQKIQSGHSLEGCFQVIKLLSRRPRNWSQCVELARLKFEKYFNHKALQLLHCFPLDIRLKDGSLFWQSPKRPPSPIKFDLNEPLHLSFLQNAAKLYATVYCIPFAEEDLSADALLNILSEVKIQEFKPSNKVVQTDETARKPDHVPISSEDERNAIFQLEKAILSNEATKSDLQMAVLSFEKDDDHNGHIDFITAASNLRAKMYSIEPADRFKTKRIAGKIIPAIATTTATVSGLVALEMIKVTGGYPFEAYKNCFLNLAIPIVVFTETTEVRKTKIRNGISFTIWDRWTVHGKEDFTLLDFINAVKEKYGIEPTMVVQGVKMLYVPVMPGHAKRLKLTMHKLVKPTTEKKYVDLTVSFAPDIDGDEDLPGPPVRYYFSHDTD
UniProt A0AVT1, 35-1052 V934A: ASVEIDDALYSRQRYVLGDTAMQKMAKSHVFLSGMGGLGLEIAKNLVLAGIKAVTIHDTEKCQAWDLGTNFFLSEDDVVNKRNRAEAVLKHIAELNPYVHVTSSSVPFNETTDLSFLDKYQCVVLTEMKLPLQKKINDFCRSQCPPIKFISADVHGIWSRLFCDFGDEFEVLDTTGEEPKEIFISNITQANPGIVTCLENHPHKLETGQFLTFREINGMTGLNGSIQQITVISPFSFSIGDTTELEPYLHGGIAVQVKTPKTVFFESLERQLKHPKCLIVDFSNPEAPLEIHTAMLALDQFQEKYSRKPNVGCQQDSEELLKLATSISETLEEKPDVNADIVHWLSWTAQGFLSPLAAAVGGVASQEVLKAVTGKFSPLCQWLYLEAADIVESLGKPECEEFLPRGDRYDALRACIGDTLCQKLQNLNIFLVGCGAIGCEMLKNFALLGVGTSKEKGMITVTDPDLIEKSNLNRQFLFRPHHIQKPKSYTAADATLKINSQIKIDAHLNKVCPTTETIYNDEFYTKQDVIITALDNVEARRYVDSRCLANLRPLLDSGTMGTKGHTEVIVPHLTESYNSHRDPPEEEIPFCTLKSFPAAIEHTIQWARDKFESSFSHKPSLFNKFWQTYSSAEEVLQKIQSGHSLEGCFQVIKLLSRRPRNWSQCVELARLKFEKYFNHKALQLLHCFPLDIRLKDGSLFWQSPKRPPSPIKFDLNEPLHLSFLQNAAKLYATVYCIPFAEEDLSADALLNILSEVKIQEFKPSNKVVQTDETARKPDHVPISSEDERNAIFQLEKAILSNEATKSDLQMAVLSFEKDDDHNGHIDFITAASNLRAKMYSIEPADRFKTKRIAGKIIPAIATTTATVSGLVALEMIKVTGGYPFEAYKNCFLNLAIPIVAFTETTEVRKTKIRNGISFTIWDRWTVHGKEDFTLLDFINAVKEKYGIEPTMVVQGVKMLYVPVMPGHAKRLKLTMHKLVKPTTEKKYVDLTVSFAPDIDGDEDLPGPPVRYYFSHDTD
UniProt A0AVT1, 35-1052 D616A: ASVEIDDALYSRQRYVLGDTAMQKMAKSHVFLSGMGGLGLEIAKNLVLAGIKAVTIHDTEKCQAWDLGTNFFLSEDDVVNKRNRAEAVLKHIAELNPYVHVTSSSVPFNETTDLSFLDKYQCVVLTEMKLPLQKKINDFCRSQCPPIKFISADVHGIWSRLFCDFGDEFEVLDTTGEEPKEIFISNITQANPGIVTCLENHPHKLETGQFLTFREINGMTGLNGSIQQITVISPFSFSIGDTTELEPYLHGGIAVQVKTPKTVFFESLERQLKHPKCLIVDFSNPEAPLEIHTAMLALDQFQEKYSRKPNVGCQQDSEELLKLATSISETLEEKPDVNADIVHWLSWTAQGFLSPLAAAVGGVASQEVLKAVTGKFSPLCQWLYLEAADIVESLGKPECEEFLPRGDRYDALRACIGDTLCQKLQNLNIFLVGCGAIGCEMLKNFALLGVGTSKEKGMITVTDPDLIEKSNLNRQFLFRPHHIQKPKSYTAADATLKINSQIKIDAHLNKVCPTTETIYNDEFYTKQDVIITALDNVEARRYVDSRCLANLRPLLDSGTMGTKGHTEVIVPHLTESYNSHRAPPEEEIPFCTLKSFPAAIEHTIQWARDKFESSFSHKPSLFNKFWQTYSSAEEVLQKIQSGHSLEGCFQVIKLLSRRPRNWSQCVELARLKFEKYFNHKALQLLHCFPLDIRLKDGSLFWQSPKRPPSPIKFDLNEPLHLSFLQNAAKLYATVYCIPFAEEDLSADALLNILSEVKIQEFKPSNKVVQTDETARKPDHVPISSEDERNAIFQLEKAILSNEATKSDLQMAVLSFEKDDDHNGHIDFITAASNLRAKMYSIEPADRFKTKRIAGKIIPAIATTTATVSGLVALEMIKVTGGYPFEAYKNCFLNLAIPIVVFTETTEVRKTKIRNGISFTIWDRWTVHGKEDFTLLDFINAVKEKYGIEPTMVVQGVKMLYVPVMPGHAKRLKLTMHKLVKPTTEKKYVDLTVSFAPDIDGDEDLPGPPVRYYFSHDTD
UniProt A0AVT1, 35-1052 E601Q: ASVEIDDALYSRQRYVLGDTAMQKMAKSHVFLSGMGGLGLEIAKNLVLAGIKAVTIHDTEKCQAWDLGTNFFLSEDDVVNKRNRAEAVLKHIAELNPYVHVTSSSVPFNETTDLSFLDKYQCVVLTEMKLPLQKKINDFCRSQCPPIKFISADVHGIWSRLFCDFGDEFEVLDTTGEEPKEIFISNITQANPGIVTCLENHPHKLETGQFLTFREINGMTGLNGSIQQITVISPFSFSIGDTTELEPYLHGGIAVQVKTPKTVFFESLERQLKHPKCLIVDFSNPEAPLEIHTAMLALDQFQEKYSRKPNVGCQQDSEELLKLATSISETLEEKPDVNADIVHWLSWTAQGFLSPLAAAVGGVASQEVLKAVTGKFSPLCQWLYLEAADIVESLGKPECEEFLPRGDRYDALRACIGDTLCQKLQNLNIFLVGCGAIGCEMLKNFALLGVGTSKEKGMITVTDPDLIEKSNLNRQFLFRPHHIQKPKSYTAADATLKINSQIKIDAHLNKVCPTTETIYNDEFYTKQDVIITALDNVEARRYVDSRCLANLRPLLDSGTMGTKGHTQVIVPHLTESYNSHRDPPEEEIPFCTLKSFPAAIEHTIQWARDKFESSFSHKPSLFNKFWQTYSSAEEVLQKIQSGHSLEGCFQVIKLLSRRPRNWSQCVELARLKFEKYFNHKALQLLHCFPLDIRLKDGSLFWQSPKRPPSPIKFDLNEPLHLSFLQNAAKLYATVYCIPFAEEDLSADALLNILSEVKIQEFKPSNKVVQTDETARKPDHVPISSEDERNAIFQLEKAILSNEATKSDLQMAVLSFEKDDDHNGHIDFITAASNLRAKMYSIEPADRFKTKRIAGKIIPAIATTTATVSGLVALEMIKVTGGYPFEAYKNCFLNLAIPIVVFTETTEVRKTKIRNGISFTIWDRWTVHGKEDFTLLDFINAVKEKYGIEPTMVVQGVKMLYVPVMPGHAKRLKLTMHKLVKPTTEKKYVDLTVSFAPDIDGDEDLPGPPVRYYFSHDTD

Experiments:
[1] = target: human UBA6 (residues 35-1052) F316A variant (human) (UniProt A0AVT1)
[2] = target: human UBA6 (residues 35-1052) V934A variant (human) (UniProt A0AVT1)
[3] = target: human UBA6 (residues 35-1052) D616A variant (human) (UniProt A0AVT1)
[4] = target: human UBA6 (residues 35-1052) E601Q variant (human) (UniProt A0AVT1)

For “ubiquitin (from UniProt P0CG47 1-76) (natural protein)”, the activation of ubiquitin by UBA6 (ubiquitylation assay, E1 charged with IRdye 800CW-ubiquitin, non-reducing SDS-PAGE), relative to wild-type UBA6 [1] was 33%, the activation of ubiquitin by UBA6 (ubiquitylation assay, E1 charged with IRdye 800CW-ubiquitin, non-reducing SDS-PAGE), relative to wild-type UBA6 [2] was 12% and the ubiquitylation activity of UBA6 (E1 charged with IRdye 800CW-ubiquitin, non-reducing SDS-PAGE), residual activity relative to wild-type UBA6 [3] was 22%. It also gave an activation of ubiquitin by UBA6 (E1 charged with IRdye 800CW-ubiquitin, non-reducing SDS-PAGE), residual activity relative to wild-type UBA6 [4] of 22%.
